Assay results from US20160101054A1, “SUSTAINED DELIVERY OF DRUGS FROM BIODEGRADABLE POLYMERIC MICROPARTICLES” (Yale University, priority 2008, published 2016).

Biological target: EGFR (Homo sapiens, UniProt P00533)
Details: at 3 mM (~9.5 ng/mg polymer)

COc1cc2ncnc(Nc3cccc(Cl)c3)c2cc1OC [AG1478]
inhibition in A431 cells: greater than 95%
